This note sets out measurements from patent US7671062B2, “Modulators of chemokine receptor activity, crystalline forms and process” (Bristol-Myers Squibb Company, priority 2006, dated 2010).

Amino acid sequences for entries named in this document (tags omitted). Residues count along the entry.
UniProt P41597, 1-360 isoform 2: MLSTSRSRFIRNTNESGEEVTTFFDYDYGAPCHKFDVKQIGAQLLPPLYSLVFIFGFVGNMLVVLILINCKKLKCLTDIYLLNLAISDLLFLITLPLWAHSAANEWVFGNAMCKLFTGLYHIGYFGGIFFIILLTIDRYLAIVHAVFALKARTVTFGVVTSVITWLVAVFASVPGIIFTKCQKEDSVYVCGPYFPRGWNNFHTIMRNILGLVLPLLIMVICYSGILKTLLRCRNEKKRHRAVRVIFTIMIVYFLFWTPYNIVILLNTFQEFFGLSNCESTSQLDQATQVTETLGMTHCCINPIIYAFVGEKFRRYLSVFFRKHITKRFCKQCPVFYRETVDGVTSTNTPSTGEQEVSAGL

In test [1] the target is T1, CCR2 (Homo sapiens, UniProt P41597). Description: CCR2 chemotaxis, MCP-1-induced, THP-1 cells. In kind it is cell-based.
Test [2] deals with T1, CCR2. Description: Human peripheral blood mononuclear cell binding (CCR2 binding), 125I-human MCP-1 tracer. The following applies: read-out: CCR2 Binding IC50; mean ± SD (n in parentheses); tested form: TFA.
The next test has as its system Sodium Channel, Site 2. The following applies: at 10,000 nM.

As to `CC(C)N(C)[C@@H]1CC[C@H](N2CC[C@H](NC(=O)c3cccc(C(F)(F)F)c3)C2=O)[C@H](CS(=O)(=O)C(C)(C)C)C1`, the IC50 at CCR2 [1] (read-out: CCR2 Chemotaxis IC50, number in brackets = n) turned out to be 0.21 nM.

Turning to `CC(C)N(C)[C@@H]1CC[C@H](N2CC[C@H](NC(=O)c3cccc(C(F)(F)F)c3)C2=O)[C@H](CS(C)(=O)=O)C1`, the IC50 at CCR2 [1] (read-out: CCR2 Chemotaxis IC50, number in brackets = n, tested form: TFA) turned out to be 2.63 nM; at CCR2 [2] it was 1.83 nM.

`CC(C)N(C)[C@@H]1CC[C@H](N2CC[C@H](NC(=O)c3cccc(C(F)(F)F)n3)C2=O)[C@H](CS(C)(=O)=O)C1`: the “Na+ channel binding (% inhibition)” value with Sodium Channel, Site 2 was 6%, 10,000 nM.

In the case of `CCC[C@@H]1C[C@H](N(C)C(C)C)CC[C@@H]1N1CC[C@H](Nc2ncnc3ccc(C(F)(F)F)cc23)C1=O`, the “Na+ channel binding (% inhibition)” value with Sodium Channel, Site 2 is 97%, 10,000 nM.

A word on the IC50: it is the concentration that gives 50% inhibition.
